According to paper PMC11923992:

What was measured:
[1] = cycloheximide chase, YAP turnover rate; settings: glycan lost
[2] = ACM-induced YAP accumulation, immunoblot; settings: glycan lost; control: MDA-MB-231-YAPWT in ACM
[3] = proliferation, clonogenic survival with carboplatin, gemcitabine, paclitaxel; settings: glycan lost; control: MDA-MB-231-YAPWT
[4] = YAP IP, anti-ubiquitin blot; settings: glycan lost; control: untreated ACM-conditioned MDA-MB-231
[5] = YAP immunofluorescence intensity; settings: glycan lost; control: untreated ACM-conditioned MDA-MB-231
[6] = control: untreated ACM-conditioned MDA-MB-231

B1: YAP (Yes-associated protein): YAPT83A (protein)
parent chain: MDPGQQPPPQPAPQGQGQPPSQPPQGQGPPSGPGQPAPAATQAAPQAPPAGHQIVHVRGDSETDLEALFNAVMNPKTANVPQTVPMRLRKLPDSFFKPPEPKSHSRQASTDAGTAGALTPQHVRAHSSPASLQLGAVSPGTLTPTGVVSGPAATPTAQHLRQSSFEIPDDVPLPAGWEMAKTSSGQRYFLNHIDQTTTWQDPRKAMLSQMNVTAPTSPPVQQNMMNSASGPLPDGWEQAMTQDGEIYYINHKNKTTSWLDPRLDPRFAMNQRISQSAPVKQPPPLAPQSPQGGVMGGSNSNQQQQMRLQQLQMEKERLRLKQQELLRQAMRNINPSTANSPKCQELALRSQLPTLEQDGGTQNPVSSPGMSQELRTMTTNSSDPFLNSGTYHSRDESTDSGLSMSSYSVPRTPDDFLNSVDEMDTGDTINQSTLPSQQNRFPDYLEAIPGTNVDLGTLEGDGMNIEGEELMPSLQEALSSDILNDMESVLAATKLDKESFLTWL
For B1, the degradation_or_half_life ([1]; control: YAPWT) was “increases”, the expression_or_secretion [2] was “abolishes” and the “other: chemotherapy resistance of cells” value [3] was “decreases”.

B2: YAP (Yes-associated protein): OSMI-1 (protein)
parent chain: B1 parent chain
In the case of B2, the “other: ubiquitylation of YAP” value [4] is reported as “increases”, the expression_or_secretion [5] is reported as “decreases” and the degradation_or_half_life [1, 6] is reported as “increases”.

B3: YAP (Yes-associated protein): DON (GFAT inhibitor) (protein)
parent chain: B1 parent chain
With B3 the expression_or_secretion [5] was “decreases” and the degradation_or_half_life [1, 6] was “increases”.
